Test results taken from patent publication US20260007651A1, “Effect of YEL002 on Conditions and Diseases” (RadMit, Inc., priority 2022, published 2026).

Tested on: cells
Assay: Resistance of cells to exposure to a variety of agents
Conditions: UV, chemical carcinogens, chemical warfare agents, radioactive iodine and cigarette smoke

Question: Which “resistance of cells to agents” value does the source give for `COc1ccc2cc(-c3nc4ccc(C)cn4c3NCc3ccco3)c(=O)[nH]c2c1` [YEL002] here?
Answer: Its value is “more resistant”.
